Results on one molecule are retold here after US4923892A, “Tricyclic aromatic compounds” (Burroughs Wellcome Co., priority 1985, dated 1990).

The test system of the assay is histamine. The experiment in a line: In vivo antihistaminic activity: protection of guinea pigs against histamine aerosol challenge. Also noted: species or system Guinea pigs (Hartley, male). To be noted: Cavia porcellus, po, 4 hr post dosing, 0.25% histamine aerosol, at least 40 animals.

As usually defined, the ED50 is the dose that gives a 50% effect, or the effect in half of the subjects.

Bounds are passed on as bounds.

In turn, `CN(C)CCC=C1c2ccccc2COc2ccccc21` [Doxepin, 11-(3-(dimethylamino)propylidene)-6,11-dihydrodibenz[b,e]oxepin, reference compound] displayed an ED50 of more than 9 mg/kg.
